± gives the uncertainty stated by the source.
B1: Tyrosine-protein kinase ABL1, residues 64 to 120; numbered along this chain, P00519 (parent)
chain: NLFVALYDFVASGDNTLSITKGEKLRVLGYNHNGEWCEAQTKNGQGWVPSNYITPVN

Variants of: B1
Assay: abundance fitness (aPCA) (normalised: wild type 0, dead -1); higher = more abundant; growth selection in yeast, the domain comes from the species named
Settings: Homo sapiens

Question: Which abundance fitness does the source give for NLFVALYDFCASGDNTLSITKGEKLRVLGYNHNGEWCEAQTKNGQGWVPSNYITPVN here?
Answer: The abundance fitness was -0.162 ± 0.15.

Question: For NLFVALYDFDASGDNTLSITKGEKLRVLGYNHNGEWCEAQTKNGQGWVPSNYITPVN, which abundance fitness is on record?
Answer: Its abundance fitness is -0.398 ± 0.17.

Question: For NLFVALYDFEASGDNTLSITKGEKLRVLGYNHNGEWCEAQTKNGQGWVPSNYITPVN, which abundance fitness is on record?
Answer: Its abundance fitness is 0.022 ± 0.084.

Question: Which abundance fitness does the source give for NLFVALYDFFASGDNTLSITKGEKLRVLGYNHNGEWCEAQTKNGQGWVPSNYITPVN here?
Answer: Its abundance fitness is 0.051 ± 0.12.

Question: With NLFVALYDFHASGDNTLSITKGEKLRVLGYNHNGEWCEAQTKNGQGWVPSNYITPVN as the variant, how does the abundance fitness read?
Answer: Its abundance fitness is 0.209 ± 0.17.

Question: Which abundance fitness does the source give for NLFVALYDFIASGDNTLSITKGEKLRVLGYNHNGEWCEAQTKNGQGWVPSNYITPVN here?
Answer: Its abundance fitness is 0.022 ± 0.08.

Question: For NLFVALYDFKASGDNTLSITKGEKLRVLGYNHNGEWCEAQTKNGQGWVPSNYITPVN, which abundance fitness is on record?
Answer: The abundance fitness was 0.039 ± 0.095.

Question: With NLFVALYDFLASGDNTLSITKGEKLRVLGYNHNGEWCEAQTKNGQGWVPSNYITPVN as the variant, how does the abundance fitness read?
Answer: Its abundance fitness is -0.15 ± 0.078.

Question: For NLFVALYDFMASGDNTLSITKGEKLRVLGYNHNGEWCEAQTKNGQGWVPSNYITPVN, which abundance fitness is on record?
Answer: Its abundance fitness is 0.099 ± 0.079.

Question: With NLFVALYDFNASGDNTLSITKGEKLRVLGYNHNGEWCEAQTKNGQGWVPSNYITPVN as the variant, how does the abundance fitness read?
Answer: Its abundance fitness is 0.096 ± 0.073.

Question: With NLFVALYDFPASGDNTLSITKGEKLRVLGYNHNGEWCEAQTKNGQGWVPSNYITPVN as the variant, how does the abundance fitness read?
Answer: Its abundance fitness is -0.126 ± 0.087.

Question: Which abundance fitness does the source give for NLFVALYDFQASGDNTLSITKGEKLRVLGYNHNGEWCEAQTKNGQGWVPSNYITPVN here?
Answer: Its abundance fitness is 0.212 ± 0.11.

Question: Which abundance fitness does the source give for NLFVALYDFRASGDNTLSITKGEKLRVLGYNHNGEWCEAQTKNGQGWVPSNYITPVN here?
Answer: The abundance fitness was -0.044 ± 0.072.

Question: For NLFVALYDFSASGDNTLSITKGEKLRVLGYNHNGEWCEAQTKNGQGWVPSNYITPVN, which abundance fitness is on record?
Answer: The abundance fitness was -0.088 ± 0.086.

Question: With NLFVALYDFTASGDNTLSITKGEKLRVLGYNHNGEWCEAQTKNGQGWVPSNYITPVN as the variant, how does the abundance fitness read?
Answer: The abundance fitness was -0.034 ± 0.091.

Question: With NLFVALYDFWASGDNTLSITKGEKLRVLGYNHNGEWCEAQTKNGQGWVPSNYITPVN as the variant, how does the abundance fitness read?
Answer: Its abundance fitness is -0.161 ± 0.12.

Question: With NLFVALYDFYASGDNTLSITKGEKLRVLGYNHNGEWCEAQTKNGQGWVPSNYITPVN as the variant, how does the abundance fitness read?
Answer: The abundance fitness was -0.335 ± 0.17.

Question: Which abundance fitness does the source give for NLFVALYDFVCSGDNTLSITKGEKLRVLGYNHNGEWCEAQTKNGQGWVPSNYITPVN here?
Answer: Its abundance fitness is -0.107 ± 0.073.

Question: For NLFVALYDFVDSGDNTLSITKGEKLRVLGYNHNGEWCEAQTKNGQGWVPSNYITPVN, which abundance fitness is on record?
Answer: Its abundance fitness is -0.067 ± 0.15.

Question: For NLFVALYDFVESGDNTLSITKGEKLRVLGYNHNGEWCEAQTKNGQGWVPSNYITPVN, which abundance fitness is on record?
Answer: The abundance fitness was -0.154 ± 0.11.

Question: With NLFVALYDFVGSGDNTLSITKGEKLRVLGYNHNGEWCEAQTKNGQGWVPSNYITPVN as the variant, how does the abundance fitness read?
Answer: Its abundance fitness is -0.17 ± 0.077.

Question: For NLFVALYDFVHSGDNTLSITKGEKLRVLGYNHNGEWCEAQTKNGQGWVPSNYITPVN, which abundance fitness is on record?
Answer: Its abundance fitness is -0.203 ± 0.1.

Question: Which abundance fitness does the source give for NLFVALYDFVKSGDNTLSITKGEKLRVLGYNHNGEWCEAQTKNGQGWVPSNYITPVN here?
Answer: The abundance fitness was -0.015 ± 0.1.

Question: For NLFVALYDFVLSGDNTLSITKGEKLRVLGYNHNGEWCEAQTKNGQGWVPSNYITPVN, which abundance fitness is on record?
Answer: Its abundance fitness is -0.275 ± 0.076.

Question: Which abundance fitness does the source give for NLFVALYDFVMSGDNTLSITKGEKLRVLGYNHNGEWCEAQTKNGQGWVPSNYITPVN here?
Answer: The abundance fitness was -0.124 ± 0.1.

Question: For NLFVALYDFVNSGDNTLSITKGEKLRVLGYNHNGEWCEAQTKNGQGWVPSNYITPVN, which abundance fitness is on record?
Answer: The abundance fitness was -0.182 ± 0.28.

Question: For NLFVALYDFVPSGDNTLSITKGEKLRVLGYNHNGEWCEAQTKNGQGWVPSNYITPVN, which abundance fitness is on record?
Answer: Its abundance fitness is -0.194 ± 0.1.

Question: For NLFVALYDFVQSGDNTLSITKGEKLRVLGYNHNGEWCEAQTKNGQGWVPSNYITPVN, which abundance fitness is on record?
Answer: Its abundance fitness is -0.148 ± 0.12.

Question: Which abundance fitness does the source give for NLFVALYDFVRSGDNTLSITKGEKLRVLGYNHNGEWCEAQTKNGQGWVPSNYITPVN here?
Answer: The abundance fitness was -0.094 ± 0.064.

Question: For NLFVALYDFVSSGDNTLSITKGEKLRVLGYNHNGEWCEAQTKNGQGWVPSNYITPVN, which abundance fitness is on record?
Answer: The abundance fitness was -0.287 ± 0.11.

Question: For NLFVALYDFVTSGDNTLSITKGEKLRVLGYNHNGEWCEAQTKNGQGWVPSNYITPVN, which abundance fitness is on record?
Answer: Its abundance fitness is -0.021 ± 0.12.

Question: With NLFVALYDFVVSGDNTLSITKGEKLRVLGYNHNGEWCEAQTKNGQGWVPSNYITPVN as the variant, how does the abundance fitness read?
Answer: The abundance fitness was -0.396 ± 0.085.

Question: With NLFVALYDFVWSGDNTLSITKGEKLRVLGYNHNGEWCEAQTKNGQGWVPSNYITPVN as the variant, how does the abundance fitness read?
Answer: Its abundance fitness is -0.455 ± 0.092.

Question: Which abundance fitness does the source give for NLFVALYDFVYSGDNTLSITKGEKLRVLGYNHNGEWCEAQTKNGQGWVPSNYITPVN here?
Answer: The abundance fitness was -0.298 ± 0.082.

Question: With NLFVALYDFVAAGDNTLSITKGEKLRVLGYNHNGEWCEAQTKNGQGWVPSNYITPVN as the variant, how does the abundance fitness read?
Answer: The abundance fitness was 0.125 ± 0.099.

Question: Which abundance fitness does the source give for NLFVALYDFVACGDNTLSITKGEKLRVLGYNHNGEWCEAQTKNGQGWVPSNYITPVN here?
Answer: Its abundance fitness is -0.298 ± 0.065.

Question: Which abundance fitness does the source give for NLFVALYDFVAEGDNTLSITKGEKLRVLGYNHNGEWCEAQTKNGQGWVPSNYITPVN here?
Answer: The abundance fitness was 0.071 ± 0.11.

Question: With NLFVALYDFVAFGDNTLSITKGEKLRVLGYNHNGEWCEAQTKNGQGWVPSNYITPVN as the variant, how does the abundance fitness read?
Answer: The abundance fitness was -0.469 ± 0.12.

Question: With NLFVALYDFVAGGDNTLSITKGEKLRVLGYNHNGEWCEAQTKNGQGWVPSNYITPVN as the variant, how does the abundance fitness read?
Answer: Its abundance fitness is -0.032 ± 0.092.

Question: Which abundance fitness does the source give for NLFVALYDFVAHGDNTLSITKGEKLRVLGYNHNGEWCEAQTKNGQGWVPSNYITPVN here?
Answer: Its abundance fitness is -0.442 ± 0.38.

Question: Which abundance fitness does the source give for NLFVALYDFVAIGDNTLSITKGEKLRVLGYNHNGEWCEAQTKNGQGWVPSNYITPVN here?
Answer: The abundance fitness was -0.248 ± 0.13.

Question: Which abundance fitness does the source give for NLFVALYDFVAKGDNTLSITKGEKLRVLGYNHNGEWCEAQTKNGQGWVPSNYITPVN here?
Answer: The abundance fitness was -0.096 ± 0.14.

Question: Which abundance fitness does the source give for NLFVALYDFVALGDNTLSITKGEKLRVLGYNHNGEWCEAQTKNGQGWVPSNYITPVN here?
Answer: Its abundance fitness is -0.099 ± 0.076.

Question: For NLFVALYDFVAMGDNTLSITKGEKLRVLGYNHNGEWCEAQTKNGQGWVPSNYITPVN, which abundance fitness is on record?
Answer: Its abundance fitness is 0.237 ± 0.1.

Question: With NLFVALYDFVANGDNTLSITKGEKLRVLGYNHNGEWCEAQTKNGQGWVPSNYITPVN as the variant, how does the abundance fitness read?
Answer: Its abundance fitness is -0.035 ± 0.22.

Question: Which abundance fitness does the source give for NLFVALYDFVAPGDNTLSITKGEKLRVLGYNHNGEWCEAQTKNGQGWVPSNYITPVN here?
Answer: Its abundance fitness is 0.148 ± 0.091.

Question: With NLFVALYDFVAQGDNTLSITKGEKLRVLGYNHNGEWCEAQTKNGQGWVPSNYITPVN as the variant, how does the abundance fitness read?
Answer: Its abundance fitness is -0.459 ± 0.2.
